Test results from US9694016B2 (dated 2017).

Protein sequences, listed by entry. Tags and fused reporters are not part of them. Lines headed by an entry give the natural chain unless they say otherwise; changes in a name come on top. Residues count along the entry.
UniProt P15056, whole entry V600E: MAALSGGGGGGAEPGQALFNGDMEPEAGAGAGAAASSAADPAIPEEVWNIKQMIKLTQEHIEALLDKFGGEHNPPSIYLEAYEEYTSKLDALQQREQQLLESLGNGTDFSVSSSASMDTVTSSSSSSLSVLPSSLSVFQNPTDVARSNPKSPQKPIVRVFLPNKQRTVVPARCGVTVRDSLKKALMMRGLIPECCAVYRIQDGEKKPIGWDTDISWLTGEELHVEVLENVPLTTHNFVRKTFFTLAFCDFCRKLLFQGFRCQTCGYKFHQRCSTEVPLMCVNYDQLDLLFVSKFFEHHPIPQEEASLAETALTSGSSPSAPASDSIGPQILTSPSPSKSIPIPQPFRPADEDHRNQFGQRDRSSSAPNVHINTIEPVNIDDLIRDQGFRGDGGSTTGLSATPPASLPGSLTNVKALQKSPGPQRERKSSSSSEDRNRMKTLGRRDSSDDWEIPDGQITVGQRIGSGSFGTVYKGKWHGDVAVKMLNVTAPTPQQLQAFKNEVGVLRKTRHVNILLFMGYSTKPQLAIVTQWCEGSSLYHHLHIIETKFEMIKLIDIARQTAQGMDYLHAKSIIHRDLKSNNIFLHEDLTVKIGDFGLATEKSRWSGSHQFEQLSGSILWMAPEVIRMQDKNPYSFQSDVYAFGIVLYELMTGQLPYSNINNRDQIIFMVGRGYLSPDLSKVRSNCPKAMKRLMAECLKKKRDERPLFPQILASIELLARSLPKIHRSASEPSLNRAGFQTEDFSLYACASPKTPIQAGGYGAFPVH
UniProt P04049, 325-648: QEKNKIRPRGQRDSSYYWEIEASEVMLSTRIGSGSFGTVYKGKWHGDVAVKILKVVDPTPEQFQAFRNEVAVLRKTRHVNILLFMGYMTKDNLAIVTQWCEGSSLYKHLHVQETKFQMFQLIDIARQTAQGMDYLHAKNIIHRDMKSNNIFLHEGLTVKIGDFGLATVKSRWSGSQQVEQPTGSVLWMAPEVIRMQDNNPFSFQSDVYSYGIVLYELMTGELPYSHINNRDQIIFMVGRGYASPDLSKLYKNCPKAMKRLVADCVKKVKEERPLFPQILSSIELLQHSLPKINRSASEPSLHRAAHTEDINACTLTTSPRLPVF

Assays:
[1] = target: T1, b-Raf (V600E) (Homo sapiens (Human), UniProt P15056, V600E); conditions: read-out: b-Raf IC-50
[2] = target: C-Raf TR (truncated C-Raf protein, Δ1-324 deletion mutant) (Homo sapiens (Human), UniProt P04049); type: biochemical; conditions: read-out: C-Raf TR IC50; truncated C-Raf approximately 4 nM, ATP 1 uM, 60 min pre-incubation, 1 hour reaction
[3] = target: T1, b-Raf (V600E); test: biochemical
[4] = Table 2, AlphaScreen, 3 hours reaction

SMILES | IC50 [1, 4] | IC50 [3] | also measured
Cc1ccc(C(=O)Nc2cccc(C(F)(F)F)c2)cc1-c1cc(N2CCOCC2)ccn1 [Example 64, 4-methyl-3-(4-morpholinopyridin-2-yl)-N-(3-(trifluoromethyl)phenyl)benzamide] | – | – | IC50 [2]: 0.847 nM
Cc1ncc(NC(=O)c2cccc(C(F)(F)F)c2)cc1-c1cc(N2CCOCC2)n(C)c(=O)c1 [Example 163] | 5.7 nM | – | –
Cc1ccc(NC(=O)c2ccc(CN)c(C(F)(F)F)c2)cc1-c1cc(N2CCOCC2)c(=O)n(C)c1 [Example 461, 4-(aminomethyl)-N-(4-methyl-3-(1-methyl-5-morpholino-6-oxo-1,6-dihydropyridin-3-yl)phenyl)-3-(trifluoromethyl)benzamide] | – | 11 nM | –
CNCc1ccc(C(=O)Nc2ccc(C)c(-c3cc(N4CCOCC4)c(=O)n(C)c3)c2)cc1C(F)(F)F [Example 466, N-(4-methyl-3-(1-methyl-5-morpholino-6-oxo-1,6-dihydropyridin-3-yl)phenyl)-4-((methylamino)methyl)-3-(trifluoromethyl)benzamide] | – | 5.5 nM | –
Cc1ncc(NC(=O)c2cccc(C(F)(F)F)c2)cc1-c1cc(N2CCOCC2)n(C)c(=O)c1 [Example 498, N-(1′,2-dimethyl-6′-morpholino-2′-oxo-1′,2′-dihydro-[3,4′-bipyridin]-5-yl)-3-(trifluoromethyl)benzamide] | – | – | IC50 ([1]; AlphaScreen, 60 min pre-incubation, 3 hours reaction): 5.7 nM
Cc1ccc(NC(=O)c2cccc(C(F)(F)F)c2)cc1-c1cc2nccn2c(N2CCOCC2)n1 [Example 828, N-(4-methyl-3-(5-morpholinoimidazo[1,2-c]pyrimidin-7-yl)phenyl)-3-(trifluoromethyl)benzamid] | – | – | IC50 [1]: 1 nM
Cc1ccc(NC(=O)c2cc(C(C)(C)N)cc(C(F)(F)F)c2)cc1-c1cc(N2CCOCC2)c(=O)n(C)c1 [Example 908, 3-(2-aminopropan-2-yl)-N-(4-methyl-3-(1-methyl-5-morpholino-6-oxo-1,6-dihydropyridin-3-yl)phenyl)-5-(trifluoromethyl)benzamide] | – | 6.88 nM | –

Further lines, with some results ahead:

IC50 [1, 4] | IC50 [3] | SMILES | also measured
1.5 nM | – | Cc1ccc(C(=O)Nc2cccc(C(F)(F)F)c2)cc1-c1cc(N2CCOCC2)nc(N2CCS(=O)(=O)CC2)n1 [Example 9, 3-(2-(1,1-dioxidothiomorpholino)-6-morpholinopyrimidin-4-yl)-4-methyl-N-(3-(trifluoromethyl)phenyl)benzamide] | –
14.9 nM | – | COc1ncc(-c2cc(NC(=O)c3ccnc(C(C)(C)C#N)c3)cnc2C)cc1N1CCOCC1 [Example 129, 2-(2-cyanopropan-2-yl)-N-(6′-methoxy-2-methyl-5′-morpholino-[3,3′-bipyridin]-5-yl)isonicotinamide] | –
– | 13.2 nM | COC(=O)NCCn1cc(-c2cc(NC(=O)c3cccc(C(F)(F)F)c3)ccc2C)cc(N2CCOCC2)c1=O [Example 194, Methyl(2-(5-(2-methyl-5-(3-(trifluoromethyl)benzamido)phenyl)-3-morpholino-2-oxopyridin-1(2H)-yl)ethyl)carbamate] | –

Like-named read-outs stand apart in the source and are kept apart here.
